Earlier results in patent publication US20240246966A1, “NEW PYRAZOLO[1,5-a] PYRIMIDINE DERIVATIVES AS SIGMA LIGANDS” (ACONDICIONAMIENTO TARRASENSE, priority 2021, published 2024).

By UniProt entry, the sequences of proteins in these tests, tags left out.
UniProt Q99720, whole entry: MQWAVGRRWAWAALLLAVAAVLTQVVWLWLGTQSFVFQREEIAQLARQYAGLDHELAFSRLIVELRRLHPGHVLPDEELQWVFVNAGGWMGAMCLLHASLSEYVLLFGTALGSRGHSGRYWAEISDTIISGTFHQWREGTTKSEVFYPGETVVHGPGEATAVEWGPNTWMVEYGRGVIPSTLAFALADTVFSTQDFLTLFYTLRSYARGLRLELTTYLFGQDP

Target: sigma-1 (σ1) site (Homo sapiens, UniProt Q99720)
Settings: background statement; cited from earlier work

(+)-SKF-10047
affinity for the sigma-1 (σ1) site: nanomolar affinity
